Assay results from ChEMBL document CHEMBL3286346, “Ultrapure ajulemic acid has improved CB2 selectivity with reduced CB1 activity” (Bioorg Med Chem, 2014).

Chains of the proteins cited; added tags and fusions are not shown.
UniProt P21554, whole entry: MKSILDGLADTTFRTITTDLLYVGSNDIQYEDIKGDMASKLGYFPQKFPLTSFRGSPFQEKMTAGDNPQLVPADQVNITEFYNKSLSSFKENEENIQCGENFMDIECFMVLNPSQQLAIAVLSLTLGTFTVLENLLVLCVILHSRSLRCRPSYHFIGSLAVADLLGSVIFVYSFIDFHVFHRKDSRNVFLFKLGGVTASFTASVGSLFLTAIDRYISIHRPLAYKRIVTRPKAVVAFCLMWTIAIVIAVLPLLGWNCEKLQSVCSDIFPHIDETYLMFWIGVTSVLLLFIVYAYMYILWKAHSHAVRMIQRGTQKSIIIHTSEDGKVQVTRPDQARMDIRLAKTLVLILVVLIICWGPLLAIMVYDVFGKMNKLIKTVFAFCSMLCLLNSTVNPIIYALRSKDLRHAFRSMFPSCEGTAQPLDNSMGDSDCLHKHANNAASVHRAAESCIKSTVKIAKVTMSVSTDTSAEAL

Biological target: Cannabinoid receptor 1 (Homo sapiens, UniProt P21554)
Assay: biochemical
Type: cell-based, HEK-293T

## Cc1ccc(Cn2nc(C(=O)N[C@@H]3C(C)(C)[C@@H]4CC[C@@]3(C)C4)cc2-c2ccc(Cl)c(C)c2)cc1 [SR-144528]
  Ki: 0.4 nM
